Target: GST-IQGAP1 C794 (UniProt P46940)
Test: pull-down; active GTPase pull-down as a7, but HEK-293T cells serum-starved for 24 h; values against the serum-stimulated condition

For “Flag-RAC1^T17N (from UniProt P63000 1-192) (natural protein)”, which percent decrease of binding strength under serum starvation is on record?
The percent decrease of binding strength under serum starvation was 33.6%.

— article PMC12702776, “New insights into the classification of the RAC1 P29S hotspot mutation in melanoma as an oncogene” (Cancer Gene Therapy, 2025)
